Measurements published in patent US12030903B2, “Antiviral compounds” (Gilead Sciences, Inc., priority 2020, dated 2024).

Key:
[1] = HEp-2 CC50 (cytotoxicity in uninfected HEp-2 cells); type: cell-based; details: human, CellTiter Glo
Method: Instead, an uninfected cell mixture at the same density is added at 20 uL/well to plates containing prediluted compounds, also at 100 nL/sample. Assay plates are then incubated for 4 days followed by a cell viability test using the same CellTiter Glo reagent addition and measurement of luminescent readouts. Untreated cell and cells treated at 2 μM puromycin (Sigma, St. Louis, MO) serve as 100% and 0% cell viability control, respectively.

[2] = test system: Human monocyte-derived dendritic cells (moDCs); assay: moDC CC50 (CellTiter Glo viability); type: cell-based; details: uninfected moDCs, 48 hours
Method: Human monocyte-derived dendritic cells (moDCs) were derived from CD14+ monocytes (AllCells) cultured in Human Mo-DC Differentiation medium containing GM-CSF and IL-4 (Miltenyi Biotec). On day 7, moDCs were harvested by mechanical disruption, washed and cultured in triplicate at […] cells/well in 96-well plates with compounds dispensed at graded doses (Hewlett-Packard D300 Digital Dispenser). All wells were normalized to 0.25% DMSO. After 48 hours, CellTiter Glo (Promega) was added and incubated for 10 minutes at room temp before reading on a luminometer. % viability curves were calculated against no compound and no cell control wells. CC50 values were determined using Prism Graphpad software.

SMILES: CCC(CC)COC(=O)[C@H](C)N[P@](=O)(OC[C@@]1(CF)O[C@@H](c2ccc3c(N)ncnn23)[C@H](OC(=O)C(C)C)[C@@H]1OC(=O)C(C)C)Oc1ccccc1 (single isomer, unassigned) [Example 62]
- CC50 at 4 days [1]: 16.8 µM

SMILES: CCOC(=O)[C@H](C)NP(=O)(OC[C@@]1(CF)O[C@@H](c2ccc3c(N)ncnn23)[C@H](OC(=O)CC)[C@@H]1OC(=O)CC)Oc1ccccc1 (stereo partly drawn) [Example 25, (2R,3S,4S,5S)-5-(4-aminopyrrolo[2,1-f][1,2,4]triazin-7-yl)-2-((((((S)-1-ethoxy-1-oxopropan-2-yl)amino)(Phenoxy)phosphoryl)oxy)methyl)-2-(fluoromethyl) tetrahydrofuran-3,4-diyl dipropionate]
- CC50 [2]: 12.2 µM
